Two compounds from ChEMBL document CHEMBL1130107, “Discovery of CGS 27023A, a non-peptidic, potent, and orally active stromelysin inhibitor that blocks cartilage degradation in rabbits” (J Med Chem, 1997) can be followed below.

Sequences of proteins named here, by UniProt entry; tags and fusion partners are left off. A change or cut given only in a name is not applied to a line headed by its entry.
UniProt P08254: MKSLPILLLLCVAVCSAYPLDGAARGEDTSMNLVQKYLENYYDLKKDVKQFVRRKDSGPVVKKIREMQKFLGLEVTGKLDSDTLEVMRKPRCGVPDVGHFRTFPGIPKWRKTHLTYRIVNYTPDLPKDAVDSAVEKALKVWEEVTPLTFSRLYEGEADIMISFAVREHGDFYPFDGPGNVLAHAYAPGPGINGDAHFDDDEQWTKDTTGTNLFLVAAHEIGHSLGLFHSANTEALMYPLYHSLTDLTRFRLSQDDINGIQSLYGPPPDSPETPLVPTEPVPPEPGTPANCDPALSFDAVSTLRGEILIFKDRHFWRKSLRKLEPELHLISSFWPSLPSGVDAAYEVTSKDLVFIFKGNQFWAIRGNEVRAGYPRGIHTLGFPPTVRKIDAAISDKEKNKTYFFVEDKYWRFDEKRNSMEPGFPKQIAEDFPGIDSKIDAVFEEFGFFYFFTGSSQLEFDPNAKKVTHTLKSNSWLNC

A word on the Ki: it is the equilibrium dissociation constant of an inhibitor or competing ligand from its target.

SMILES strings stand for the structures.

For one experiment, the target named is Stromelysin-1 (Homo sapiens, UniProt P08254). The experiment is described as follows: Inhibition activity against recombinant human stromelysin (Matrix metalloprotease-3).
The next experiment addresses T1, Interstitial collagenase (Homo sapiens, UniProt P03956).
T1 sequence (P03956 whole entry): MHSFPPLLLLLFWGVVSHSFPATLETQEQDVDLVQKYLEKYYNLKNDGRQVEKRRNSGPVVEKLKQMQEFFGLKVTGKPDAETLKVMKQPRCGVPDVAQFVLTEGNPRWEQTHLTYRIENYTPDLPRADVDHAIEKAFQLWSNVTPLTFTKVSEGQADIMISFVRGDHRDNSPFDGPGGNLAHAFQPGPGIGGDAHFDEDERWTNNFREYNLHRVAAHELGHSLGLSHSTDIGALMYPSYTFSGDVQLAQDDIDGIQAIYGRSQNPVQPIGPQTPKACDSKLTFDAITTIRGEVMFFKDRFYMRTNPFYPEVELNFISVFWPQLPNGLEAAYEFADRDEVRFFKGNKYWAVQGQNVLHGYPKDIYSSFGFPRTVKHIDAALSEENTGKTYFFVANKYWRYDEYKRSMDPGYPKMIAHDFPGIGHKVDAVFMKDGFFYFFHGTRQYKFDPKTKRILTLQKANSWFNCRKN
The experiment is described as follows: Inhibition of recombinant human collagenase, Matrix metalloprotease-1 (MMP-1).

As to `COc1ccc(S(=O)(=O)N(CC(=O)NO)CC(C)C)cc1`, the Ki on Stromelysin-1 is 133 nM.

Consider `COc1ccc(S(=O)(=O)N(Cc2cccnc2)[C@@H](C(=O)NO)C(C)C)cc1` [CGS-27023A], for which the Ki at Interstitial collagenase is 33 nM.
